## AlphaSeq binding of Ab-95 light chain variants to a spike HR2 peptide

All variants were tested on one target, the spike HR2 peptide PDVDLGDISGINAS (SARS-CoV-2).

Ab-95 is the parent antibody, in scFv form: VH, then the linker GGGGSGGGGSGGGGS, then VL. The heavy chain is unchanged in all variants.
VH: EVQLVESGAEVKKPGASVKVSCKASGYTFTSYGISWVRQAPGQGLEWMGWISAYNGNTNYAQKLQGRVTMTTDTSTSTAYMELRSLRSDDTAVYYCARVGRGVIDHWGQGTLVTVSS
VL: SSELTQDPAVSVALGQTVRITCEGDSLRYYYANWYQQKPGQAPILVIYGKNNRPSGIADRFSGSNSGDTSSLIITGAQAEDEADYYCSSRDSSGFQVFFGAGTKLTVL

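The parent was found by panning a naive human phage display library on the peptide. The library (AAYL52) carries one to three amino acid substitutions per variant, with no insertions or deletions. AlphaSeq pools MATa yeast showing the antibodies with MATalpha yeast showing the peptide. Binding brings cells together so that they mate, and sequencing counts the barcode pairs among the diploids. A regression on co-assayed BCL2-family reference pairs converts the normalised counts of each replicate to an apparent Kd. There are three technical replicates.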

Each variant is given by its three light chain CDRs, as the data file delimits them; those of the parent are EGDSLRYYYAN, GKNNRPS, SSRDSSGFQVF. Scale: log10 of Kd in nM, estimated from mating counts; low values are strong binders. The mean shown is taken over the replicates in which the pair was detected. An entry "no signal" has no value in the source: the pair was not observed among the diploids in any replicate. This suggests poor binding but is not conclusive. Order: sorted from the lowest average up, undetected variants last. As a blank, each scFv also met three strains without target: over library AAYL52, 28% of these pairings were detected, typically at 3.91 and seldom below 2.90.

mean, log10 nM	replicates with signal	CDR-L1	CDR-L2	CDR-L3
0.66	3/3	EGESLRYYYAP	GKNNRPS	SSRDSSGFNVF
1.45	3/3	EGDSLRYYEAN	GKNNRPS	DSRDSSGFQVF
1.50	3/3	EGDSLRYEYAN	GKNNRPS	SLRDSSGFMVF
1.87	3/3	EGDSLRYYNAN	GKGNSPS	SSRDSSGFQVF
1.96	3/3	CGDSLRTYYAN	GKNNRPS	SSRDASGFQVF
2.21	3/3	EGDSLRYHYAN	GKNNRPS	SSRDSSGFVVF
2.25	3/3	EGDSLRHYYAN	GKNNRPS	SSRDSSFFQPF
2.84	3/3	EGDSLRYYYAN	GQNNRCS	NSRDSSGFQVF
2.96	3/3	EGDSLRYYYAN	GKNNRPS	SSRDSSAFQNM
2.97	3/3	EGDSLRYYYAN	GKNNRPS	SSRYSSDFQVF
3.04	3/3	EGDSLRYYYAN	GKNNRDS	SSRDSSQFHVF
3.11	3/3	EGDSLRYYVAN	GKNNRPS	DSRDSSGFQVS
3.17	1/3	EGDSLRYEYAN	GKNNRPS	SWRHSSGFQVF
3.24	3/3	EGDSLRMYYAN	GKNNRQN	SSRDSSGFQVF
3.29	3/3	EGDSLRPYYAN	GKQNRPS	SSRDESGFQVF
3.37	3/3	EGDSLRYYHAN	GKHNRPS	SSRKSSGFQVF
3.40	3/3	FGDSLRYYYAN	GKANRPS	TSRDSSGFQVF
3.50	3/3	EGDSLRYYYAN	GMNARPS	SSRDSDGFQVF
3.51	2/3	EGDSLRYYYAN	GKMNRYS	SSRDSSCFQVF
3.52	2/3	EGDSDRYYYAN	GKYNRPS	SSRDHSGFQVF
3.55	3/3	EGDSLRYYYAN	GKNNRTL	SSRDSSGFQVF
3.65	1/3	EGDSLRYYYAR	GKNNRAS	SSRDESGFQVF
3.70	3/3	EGDSLRYYYAN	EKNNRPS	SSRDSSGKQVG
3.76	1/3	EGDSLPYYYAN	GKNNSPS	QSRDSSGFQVF
3.77	1/3	EGDSQRYYYAC	GKNNRPP	SSRDSSGFQVF
3.77	3/3	EGDMLRYYLAN	KKNNRPS	SSRDSSGFQVF
3.84	3/3	EGDSLRYYYAN	GKNNRIS	SSRDKSGFYVF
3.92	2/3	EGNSLRYYYAN	GKNNRPS	SSLGSSGFQVF
3.97	1/3	EEDSLRYYQAN	GKNNRPS	SQRDSSGFQVF
3.97	2/3	EGDDLRYYYAN	GKCNRPS	SSRDSSDFQVF
4.10	1/3	EGDSLRYYYPN	GKNNRPS	SSWDSSGFQVT
4.11	1/3	EGCSLSYYYAN	GKNNRPS	SSRKSSGFQVF
4.15	2/3	EGDSLRYYYAV	GKNNIPS	SSRDSSGFQVW
4.19	1/3	EGLSLRYEYAN	LKNNRPS	SSRDSSGFQVF
4.25	1/3	EGDSLRYYYAN	GKPNRPS	SSRDVSGFGVF
4.28	2/3	EGDSLRYMYAP	GKNNRPS	SSRDSSIFQVF
4.36	3/3	EGDSLRYYYAN	GWNNRPS	SSRNSSLFQVF
4.40	3/3	EGMDLRYYYAN	GKNNRPS	SSRDSSGFQVN
4.40	1/3	EDDSLEYYYAN	GKKNRPS	SSRDSSGFQVF
4.55	1/3	EGDSLRYYYAN	GENNRQS	SSRDSSLFQVF
4.72	1/3	EGDSLRYYYYN	GKNNRPS	SSRDHSGFQVD
4.77	2/3	EGDSPRYWYAN	GKNNMPS	SSRDSSGFQVF
4.77	2/3	EGDSLRYYHAN	GSNNRPS	SSLDSSGFQVF
4.94	2/3	TGDSLRYYYAF	GKNNRPS	SSRDSSMFQVF
5.64	1/3	EYDSLRYYYAN	GKNNRPS	ISRDSSGFHVF
no signal	0/3	QGDSLRYYYAN	GKNKRPS	SSRDSSGFQVY
no signal	0/3	EGASLRYYYAW	GKNNRPS	SSGDSSGFQVF
no signal	0/3	EVDSLRYYYWN	GKNNRPS	SSRDSSGFYVF
no signal	0/3	EGDSRRYYYAN	GKNNRPS	SSRDVSRFQVF
no signal	0/3	EMDDLRYYYAV	GKNNRPS	SSRDSSGFQVF
no signal	0/3	EGDSLVYYYEN	GKNNRPS	ISRDSSGFQVF
no signal	0/3	EGDSLLYYYAN	GKNNRPS	SSRDSSWFQVF
no signal	0/3	EGDSLRYYYAN	GKNNRPS	SSPMASGFQVF
no signal	0/3	EGDSLRYYYAN	GKNNRPS	SSRDSYFFQVY
no signal	0/3	EGDSLRYYYAN	GKNNRPS	IVRDSSGFWVF

The opening 6 entries, copied out:

CDR-L1	CDR-L2	CDR-L3	mean, log10 nM	replicates with signal
EGESLRYYYAP	GKNNRPS	SSRDSSGFNVF	0.66	3/3
EGDSLRYYEAN	GKNNRPS	DSRDSSGFQVF	1.45	3/3
EGDSLRYEYAN	GKNNRPS	SLRDSSGFMVF	1.50	3/3
EGDSLRYYNAN	GKGNSPS	SSRDSSGFQVF	1.87	3/3
CGDSLRTYYAN	GKNNRPS	SSRDASGFQVF	1.96	3/3
EGDSLRYHYAN	GKNNRPS	SSRDSSGFVVF	2.21	3/3

Values reported by Engelhart et al. 2022, doi:10.1038/s41597-022-01779-4 (FLAb copy).